Assay results reported in publication PMC5078011, “The oleocanthal-based homovanillyl sinapate as a novel c-Met inhibitor” (Oncotarget, 2016).

Sequences of proteins named here, by UniProt entry; tags and fusion partners are left off.
UniProt P00519, whole entry: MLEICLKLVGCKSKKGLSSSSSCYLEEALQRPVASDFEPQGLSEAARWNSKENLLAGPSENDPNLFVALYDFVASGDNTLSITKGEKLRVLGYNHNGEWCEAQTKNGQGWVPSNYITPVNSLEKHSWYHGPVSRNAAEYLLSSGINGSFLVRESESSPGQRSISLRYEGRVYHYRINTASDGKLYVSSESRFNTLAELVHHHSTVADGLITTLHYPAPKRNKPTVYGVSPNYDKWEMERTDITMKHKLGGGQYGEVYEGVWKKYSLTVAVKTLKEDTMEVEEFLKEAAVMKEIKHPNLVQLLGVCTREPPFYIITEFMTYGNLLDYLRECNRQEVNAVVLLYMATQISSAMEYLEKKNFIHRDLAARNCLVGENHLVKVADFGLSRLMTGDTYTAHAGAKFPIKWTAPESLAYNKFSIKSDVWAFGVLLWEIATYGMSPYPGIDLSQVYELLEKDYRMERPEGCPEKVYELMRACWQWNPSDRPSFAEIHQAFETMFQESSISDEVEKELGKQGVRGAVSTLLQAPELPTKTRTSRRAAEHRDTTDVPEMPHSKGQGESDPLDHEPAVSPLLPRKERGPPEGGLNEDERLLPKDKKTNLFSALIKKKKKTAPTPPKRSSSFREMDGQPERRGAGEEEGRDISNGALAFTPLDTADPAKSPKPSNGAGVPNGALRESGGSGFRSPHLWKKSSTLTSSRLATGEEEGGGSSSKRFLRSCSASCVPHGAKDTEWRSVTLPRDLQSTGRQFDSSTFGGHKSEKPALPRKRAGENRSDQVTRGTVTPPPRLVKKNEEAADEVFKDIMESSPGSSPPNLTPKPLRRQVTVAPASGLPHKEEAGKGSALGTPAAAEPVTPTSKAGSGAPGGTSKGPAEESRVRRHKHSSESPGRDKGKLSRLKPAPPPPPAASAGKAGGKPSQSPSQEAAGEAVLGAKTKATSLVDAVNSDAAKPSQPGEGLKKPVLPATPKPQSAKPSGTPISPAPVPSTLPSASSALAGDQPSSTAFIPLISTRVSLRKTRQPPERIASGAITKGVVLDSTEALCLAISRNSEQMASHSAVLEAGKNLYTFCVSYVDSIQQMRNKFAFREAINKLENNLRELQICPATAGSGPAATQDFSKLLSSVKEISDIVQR

Target: ABL1 (Homo sapiens, UniProt P00519)

## COc1cc(CCOC(=O)/C=C/c2cc(OC)c(O)c(OC)c2)ccc1O [HVS]
  Mean inhibition at 10 μM (%): 69
